System: PC12 pheochromocytoma cells
Details: HMDA 200 nM and 1 μM

NCCCCCCN [HMDA, hexamethylenediamine]
cytotoxicity effects of HMDA alone: negligible

From patent publication US5502037A, “Pro-cytotoxic drug conjugates for anticancer therapy” (priority 1993, dated 1996)
